Laboratory results reported in patent publication US20070066543A1, “Treatment of tay sachs or sandhoff diseases by enhancing hexosaminidase activity” (The Hospital For Sick Children, priority 2003, published 2007).

Chains of the proteins cited; added tags and fusions are not shown. Lines headed by an entry give the natural chain unless they say otherwise; changes in a name come on top. Residues count along the entry.
UniProt P06865, 23-74 partner limits assumed: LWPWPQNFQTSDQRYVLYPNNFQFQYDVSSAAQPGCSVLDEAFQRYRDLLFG
UniProt P06865, 89-529 G269S: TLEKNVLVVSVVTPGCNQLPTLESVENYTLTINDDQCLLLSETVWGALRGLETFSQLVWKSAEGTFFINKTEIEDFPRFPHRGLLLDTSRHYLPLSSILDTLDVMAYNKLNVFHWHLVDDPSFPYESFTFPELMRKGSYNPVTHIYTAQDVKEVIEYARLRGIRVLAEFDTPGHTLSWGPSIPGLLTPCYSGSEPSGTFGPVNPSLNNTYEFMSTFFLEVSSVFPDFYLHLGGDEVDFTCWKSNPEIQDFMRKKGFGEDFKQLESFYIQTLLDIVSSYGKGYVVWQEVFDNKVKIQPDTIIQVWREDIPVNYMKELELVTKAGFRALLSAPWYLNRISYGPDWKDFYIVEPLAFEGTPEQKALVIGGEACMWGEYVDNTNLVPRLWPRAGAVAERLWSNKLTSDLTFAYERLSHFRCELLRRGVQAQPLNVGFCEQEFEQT
UniProt P07686, 50-107 partner limits assumed: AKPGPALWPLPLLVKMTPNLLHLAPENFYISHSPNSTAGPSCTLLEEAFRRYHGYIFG
UniProt P07686, 315-556 limits assumed: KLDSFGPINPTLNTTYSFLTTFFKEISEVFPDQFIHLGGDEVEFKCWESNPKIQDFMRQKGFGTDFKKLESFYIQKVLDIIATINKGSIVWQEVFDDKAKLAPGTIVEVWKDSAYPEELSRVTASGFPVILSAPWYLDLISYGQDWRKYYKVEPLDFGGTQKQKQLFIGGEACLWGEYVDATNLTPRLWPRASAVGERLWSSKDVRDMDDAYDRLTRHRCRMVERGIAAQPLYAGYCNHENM
UniProt P07686, 122-311 limits assumed: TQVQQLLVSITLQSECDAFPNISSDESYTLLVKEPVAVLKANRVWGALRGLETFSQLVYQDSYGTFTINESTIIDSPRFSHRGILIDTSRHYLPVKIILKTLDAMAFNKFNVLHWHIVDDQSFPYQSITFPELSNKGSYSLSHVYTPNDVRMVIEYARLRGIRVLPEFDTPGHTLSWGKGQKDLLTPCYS

Columns and labels:
[1] = target: hexosaminidase A (G269S) in ATSD fibroblasts (Homo sapiens, UniProt P06865+P07686, G269S); assay: Hexosaminidase A activity (MUGS) in adult Tay-Sachs (ATSD, 17662) fibroblasts grown with compound; settings: for hexosaminidase A activity with increasing incubation times: ATSD fibroblasts; for hydrolysis of MUGS in lysates from treated cells: five days of growth with compound; for activity of hexosaminidase A: 5 days, varying concentrations (Example 11)
[2] = target: hexosaminidase A subunits in ATSD fibroblasts (Homo sapiens, UniProt P06865+P07686, G269S); assay: Western blot of ATSD cell lysates with anti-hexosaminidase A antibody; format: cell-based; settings: 5 days
Protocol: For western blot analysis, Cellulose acetate eletrophoresis, and to determine the increase in hexosaminidase A specific activity, ATSD fibroblasts were grown for 5 days in 6 well tissue culture plates (Falcon, 40 mm2) containing 1.5 mL a-MEM, FCS P/S media supplemented with/without the compounds to be evaluated. Subsequently, media were removed, cells were washed twice in PBS, and finally scraped into 1 mL of PBS. Following pelleting in microfuge, the cells were resuspended in 10 mM phosphate buffer pH 6.1 containing 5% glycerol and disrupted using by sonication (ARTEK Sonic Dimembrator, Farmington N.Y.), on ice with 4 pulses for 10 seconds at setting 6. Cleared lysates were prepared by microcentrifugation (Eppendorf) at maximum setting for 15 min at 4° C. and total protein concentration was determined using BCA protein assay (PIERCE) according to manufacturers instructions. Hexosaminidase A activity was determined using MUGS substrate at 37° C. for 1 hr as described above and expressed as nmoles of MU released/hr/mg of total protein.
Lysates containing 5 μg total protein were subjected to PAGE on a 10% bis:acrylamide gel, electrophoretically transferred to nitrocellulose (Schlicher and Schull), blotted with 5% non-fat dry skim milk powder in 25 mM Tris pH 7.5, 150 mM NaCl, 0.025% Tween 20 buffer overnight at room temperature. Blocked blots were incubated with rabbit anti-human hexosaminidase A polyclonal Ab, washed with blocking buffer, followed by incubation with anti-rabbit IgG peroxidase conjugated secondary Ab. Blots were developed using chemiluminescent substrate according to manufacturers protocol (Amersham) and recorded on BIOMAX X-ray film (KODAK).
17662 cells were grown in 6 well tissue culture dishes in medium with or without inhibitor for 6 days. Subsequently, medium was removed, cells were washed twice with PBS, scraped off into 1 ml PBS, centrifuged, and pellet was resuspended in 10 mM potassium phosphate buffer pH 6.1, 1% Triton X100. Half of the aliquot was used in a western blotting experiment and the other half was used to determine the MUGS activity of the sample. For western blotting, following PAGE, transfer to nitrocellulose and blocking in non-fat dry milk, the blot was incubated sequentially with polyclonal anti-rabbit hexosaminidase A antibody and goat anti-rabbit IgG peroxidase-conjugated secondary antibody (Amersham Biosciences). Antibody binding was visualized by ECL according to the manufacturer's instructions for Amersham ECL.

[3] = target: human placental hexosaminidase B (Homo sapiens, UniProt P07686)
[4] = target: hexosaminidase A in ATSD fibroblasts (Homo sapiens, UniProt P06865+P07686, G269S); assay: Specific activity of hexosaminidase A in lysate and lysosomal fraction of ATSD fibroblasts; format: cell-based
[5] = ATSD cells, various concentrations (FIGS. 15, 16)

Compound	hexosaminidase A activity [1, 5]	hydrolysis of MUGS in lysates from treated cells ([1]; chronic TSD fibroblasts)	band at 56 kD, lysosomally processed α-subunit (Western blot), versus untreated cells [2]	mode of inhibition of hexosaminidase B [3]	activity of hexosaminidase A ([1]; ATSD cells)	other results
CC(=O)NC1CN2CCC(O)C2C(O)C1O (stereo not shown) [ACAS, 6-acetamido-6-deoxy-castanospermine]	increased	increased	increased amounts			persistence of restorative effect on hexosaminidase A activity after removal of the inhibitor ([1]; 17662 cells, 25 μg/ml for 3 days, then inhibitor-free medium): at least 4 days; hexosaminidase A activity ([1]; 17662 cells, ACAS 4 days, MUGS): increased; persistence of enhancing effect after removal of compound ([1]; ATSD fibroblasts grown 4 days with compound, then medium lacking it): > 3 days; hexosaminidase A activity with increasing incubation times ([1]; all concentrations of ACAS): continued to increase; concentration still effective in enhancing hexosaminidase A activity ([1]; chronic TSD fibroblasts, five days): 5 µM
CC(=O)N[C@H]1CN[C@H](CO)[C@@H](O)[C@@H]1O [AddNJ, 2-acetamido-1,2-dideoxynojirimycin]		increased	increased amounts			
CC(=O)N[C@@H]1[C@@H](O)[C@@H](O)[C@@H](CO)O[C@H]1O [GalNAc, N-acetyl-β-D-galactosamine]		increased	increased amounts			
CC1=NC2[C@@H](O)[C@@H](O)C(CO)O[C@H]2S1 (stereo partly shown) [NAGal-thiazoline (2.6), N-acetyl galactosamine-thiazoline]				competitive inhibitors		
CC1=NC2[C@@H](O)[C@H](O)C(CO)O[C@H]2S1 (stereo partly shown) [NGT, N-acetylglucosamine-thiazoline]	increased	increased	increased amounts	competitive inhibitors	increased	activity of Hexosaminidase A/S (MUGS) [1]: increased; time of growth in normal medium after which effect was reduced to near background levels ([1]; ATSD fibroblasts grown 4 days with compound, then normal medium): 2 days; hexosaminidase A activity with increasing incubation times ([1]; highest concentration of NGT (0.9 mM)): continue to increase; hexosaminidase A activity with increasing incubation times ([1]; lower NGT concentrations (0.18 mM, 0.03 mM, 0.007 mM)): peaked after seven days incubation, and plateaud or declined thereafter; increase in specific hexosaminidase A activity ([4]; ATSD cells, 0.9 mM NGT, 5 days): eight fold; increase in hexosaminidase A (lysate) ([4]; ATSD fibroblasts, 250 μg/mL, 7 days, lysate): approximately two fold
CC(=O)OCC1OC2SC(C)=NC2C(OC(C)=O)C1OC(C)=O (stereo not shown) [fully acetylated NGT]					increased	
